Results published in US11401286B2 (Tetra Discovery Partners, LLC, priority 2012, dated 2022).
Blank lines part the entries; values can stand above or below the compound they belong to.

Legend:
[1] = molecular target: human PDE4D7 containing UCR1 activating mutation S54D (PDE4D7*) (Homo sapiens (Human), UniProt Q08499, S129D); assay: biochemical
[2] = system: human PDE4D7 containing UCR1 activating mutation S54D (PDE4D7*)

IC50 [1]: < 1000 nM
SMILES: CCCNC(=O)Cc1ccc(Nc2nc(-c3ccc(Cl)s3)nc(C)c2CC)cc1 [Example 307, 2-[4-[[2-(5-Chloro-2-thienyl)-5-ethyl-6-methyl-pyrimidin-4-yl]amino]phenyl]-N-propyl-acetamide]

IC50 [1]: > 1000 nM
SMILES: O=C(O)Cc1ccc(Nc2cc(C3CC3)nc(-c3cccc(Cl)c3)n2)nc1 [Example 213, 2-(6-((2-(3-Chlorophenyl)-6-cyclopropylpyrimidin-4-yl)amino)pyridin-3-yl)acetic acid]

IC50 [1]: < 1000 nM
SMILES: CCc1c(C)nc(-c2ccc(Cl)s2)nc1Nc1ccc(CC(=O)NC)cc1 [Example 308, 2-[4-[[2-(5-Chloro-2-thienyl)-5-ethyl-6-methyl-pyrimidin-4-yl]amino]phenyl]-N-methyl-acetamide]

IC50 [1]: < 1000 nM
SMILES: O=S1(=O)CCCc2nc(C3CCCC3)nc(Nc3ccc(CCO)cc3)c21 [Example 285, 2-Cyclopentyl-4-((4-(2-hydroxyethyl)phenyl)amino)-7,8-dihydro-6H-thiopyrano[3,2-d]pyrimidine 5,5-dioxide]

IC50 [1]: < 1000 nM
SMILES: Clc1ccc(-c2nc(Nc3ccc(Cc4nnn[nH]4)cc3)cc(C3CC3)n2)s1 [Example 298, 2-(5-Chloro-2-thienyl)-6-cyclopropyl-N-[4-(1H-tetrazol-5-ylmethyl)phenyl]pyrimidin-4-amine]

IC50 [1]: < 1000 nM
SMILES: CCc1c(C)nc(-c2ccc(Cl)s2)nc1Nc1ccc(CS(C)(=O)=O)cc1 [Example 317, 2-(5-chloro-2-thienyl)-5-ethyl-6-methyl-N-[4-(methylsulfonylmethyl)phenyl]pyrimidin-4-amine]

IC50 [1]: < 1000 nM
SMILES: O=S1(=O)CCCc2nc(-c3cccc(Cl)c3)nc(Nc3ccc(Cc4nn[nH]n4)cc3)c21 [Example 316, 2-(3-Chlorophenyl)-5,5-dioxo-N-[4-(2H-tetrazol-5-ylmethyl)phenyl]-7,8-dihydro-6H-thiopyrano[3,2-d]pyrimidin-4-amine]

IC50 [1]: > 1000 nM
SMILES: O=C(O)Cc1ccc(Nc2cc(C3CC3)nc(-c3ccc(Cl)s3)n2)cc1 [Example 297, 2-[4-[[2-(5-Chloro-2-thienyl)-6-cyclopropyl-pyrimidin-4-yl]amino]phenyl]acetic acid]

IC50 [1]: < 1000 nM
SMILES: FC(F)(F)c1cc(Cc2ccc(Cn3cc(Cl)cn3)cc2)nc(-c2cccc(Cl)c2)n1 [Example 218, 4-(4-((4-Chloro-1H-pyrazol-1-yl)methyl)benzyl)-2-(3-chlorophenyl)-6-(trifluoromethyl)pyrimidine]

IC50 [1]: < 1000 nM
SMILES: Clc1ccc(-c2nc3c(c(Nc4ccc(-c5nnn[nH]5)cc4)n2)CCC3)s1 [Example 77, 2-(5-Chloro-2-thienyl)-N-[4-(1H-tetrazol-5-yl)phenyl]-6,7-dihydro-5H-cyclopenta[d]pyrimidin-4-amine]

IC50 [1]: < 1000 nM
SMILES: OCCc1ccc(Nc2nc(-c3cccc(Cl)c3)nc3c2CCCC3)cc1 [Example 235, 2-(4-((2-(3-Chlorophenyl)-5,6,7,8-tetrahydroquinazolin-4-yl)amino)phenyl)ethanol]

IC50 [1]: < 1000 nM
SMILES: O=C(O)c1ccc(Nc2nc(-c3cccc(Cl)c3)nc(C3CC3)n2)cc1 [Example 41, 4-((4-(3-chlorophenyl)-6-cyclopropyl-1,3,5-triazin-2-yl)amino)benzoic acid]

IC50 [1]: < 1000 nM
SMILES: NC(=O)Cc1ccc(Cc2nc(-c3cccc(Cl)c3)nc3c2CCC3)cc1 [Example 68, 2-(4-((2-(3-chlorophenyl)-6,7-dihydro-5H-cyclopenta[d]pyrimidin-4-yl)methyl)phenyl)acetamide]

IC50 [1]: < 1000 nM
SMILES: O=S1(=O)CCCc2nc(C3CCCC3)nc(Nc3ccc(CCCO)cc3)c21 [Example 287, 2-Cyclopentyl-4-((4-(3-hydroxypropyl)phenyl)amino)-7,8-dihydro-6H-thiopyrano[3,2-d]pyrimidine 5,5-dioxide]

IC50 [1]: > 1000 nM
SMILES: O=C1NCCN1c1ccc(Nc2nc(-c3cccc(Cl)c3)nc(C3CC3)n2)cc1 [Example 53, 1-(4-((4-(3-chlorophenyl)-6-cyclopropyl-1,3,5-triazin-2-yl)amino)phenyl)imidazolidin-2-one]

IC50 [1]: < 1000 nM
SMILES: CCc1c(C)nc(-c2ccc(Cl)s2)nc1Nc1ccc(CC(=O)NC#N)cc1 [Example 301, 2-[4-[[2-(5-Chloro-2-thienyl)-5-ethyl-6-methyl-pyrimidin-4-yl]amino]phenyl]-N-cyano-acetamide]

IC50 [1]: < 1000 nM
SMILES: O=S1(=O)CCCc2nc(C3CCCC3)nc(Cc3ccc(CCO)cc3)c21 [Example 288, 2-Cyclopentyl-4-(4-(2-hydroxyethyl)benzyl)-7,8-dihydro-6H-thiopyrano[3,2-d]pyrimidine 5,5-dioxide]

IC50 [1]: < 1000 nM
SMILES: NC(=O)Cc1ccc(Nc2nc(C3CCCC3)nc3c2SCCC3)cc1 [Example 284, 2-(4-((2-cyclopentyl-7,8-dihydro-6H-thiopyrano[3,2-d]pyrimidin-4-yl)amino)phenyl)acetamide]

IC50 [1]: < 1000 nM
SMILES: N#CNC(=O)Cc1ccc(Nc2nc(-c3cccc(Cl)c3)nc3c2S(=O)(=O)CCC3)cc1 [Example 315, 2-[4-[[2-(3-Chlorophenyl)-5,5-dioxo-7,8-dihydro-6H-thiopyrano[3,2-d]pyrimidin-4-yl]amino]phenyl]-N-cyano-acetamide]

IC50 [1]: < 1000 nM
SMILES: O=C(Cc1ccc(Nc2cc(C3CC3)nc(-c3cccc(Cl)c3)n2)nc1)NCCO [Example 215, 2-(6-((2-(3-Chlorophenyl)-6-cyclopropylpyrimidin-4-yl)amino)pyridin-3-yl)-N-(2-hydroxyethyl)acetamide]

IC50 [1]: < 1000 nM
SMILES: CCc1c(C)nc(-c2ccc(Cl)s2)nc1Nc1ccc(Cn2nccn2)cc1 [Example 300]

Further lines, the compound ahead of its results:

SMILES: Cc1nc(Nc2ccc(CC(=O)O)cc2)nc(-c2ccco2)n1 [Example 24, 2-(4-((4-(furan-2-yl)-6-methyl-1,3,5-triazin-2-yl)amino)phenyl)acetic acid]
IC50 [1]: > 1000 nM | Selectivity PDE4 isoforms B*/D* ([2]; ratio PDE4B1*/PDE4D7*): − (− indicates a selectivity of ≤10×) | Selectivity PDE4 isoforms D/D* ([2]; ratio PDE4D7/PDE4D7*): − (− indicates a selectivity of ≤10×)

SMILES: O=C(O)c1ccc(CNc2nc(-c3ccc(Cl)cc3)nc(C3CC3)n2)cc1 [Example 45, 4-(((4-(4-chlorophenyl)-6-cyclopropyl-1,3,5-triazin-2-yl)amino)methyl)benzoic acid]
IC50 [1]: < 1000 nM

SMILES: CCc1c(C)nc(-c2ccc(Cl)s2)nc1Nc1ccc(Cc2nc(C(=O)O)c[nH]2)cc1 [Example 306, 2-[[4-[[2-(5-Chloro-2-thienyl)-5-ethyl-6-methyl-pyrimidin-4-yl]amino]phenyl]methyl]-1H-imidazole-4-carboxylic acid]
IC50 [1]: > 1000 nM

SMILES: N#CCc1ccc(Nc2nc(-c3cccc(Cl)c3)nc3c2CCC3)cc1 [Example 19, 2-[4-[[2-(3-chlorophenyl)-6,7-dihydro-5H-cyclopenta[d]pyrimidin-4-yl]amino]phenyl]acetonitrile]
IC50 [1]: > 1000 nM

SMILES: O=C(O)CCc1ccc(Nc2nc(-c3ccc(Cl)s3)nc3c2CCC3)cc1 [Example 15, 3-[4-[[2-(5-Chloro-2-thienyl)-6,7-dihydro-5H-cyclopenta[d]pyrimidin-4-yl]amino]phenyl]propanoic acid]
IC50 [1]: < 1000 nM

SMILES: CCc1c(C)nc(-c2ccc(Cl)s2)nc1Nc1ccc(B(O)O)cc1 [Example 292, [4-[[2-(5-Chloro-2-thienyl)-5-ethyl-6-methyl-pyrimidin-4-yl]amino]phenyl]boronic acid]
IC50 [1]: < 1000 nM

SMILES: CCc1nc(Nc2ccc(CC(N)=O)cc2)nc(-c2cccc(Cl)c2)n1 [Example 57, 2-(4-(4-(3-chlorophenyl)-6-ethyl-1,3,5-triazin-2-ylamino)phenyl)acetamide]
IC50 [1]: < 1000 nM

SMILES: COC(=O)Cc1ccc(Nc2nc(Cl)nc(-c3ccc(Cl)s3)n2)cc1 [Example 35, methyl 2-(4-((4-chloro-6-(5-chlorothiophen-2-yl)-1,3,5-triazin-2-yl)amino)phenyl)acetate]
IC50 [1]: > 1000 nM

SMILES: OCCc1ccc(Nc2cc(-c3cccc(Cl)c3)nc3c2CCC3)cc1 [Example 6, 2-[4-[[2-(3-Chlorophenyl)-6,7-dihydro-5H-cyclopenta[b]pyridin-4-yl]amino]phenyl]ethanol]
IC50 [1]: < 1000 nM

SMILES: CCc1cc(Cc2ccc(CC(N)=O)cc2)nc(-c2cccc(Cl)c2)n1 [Example 65, 2-(4-((2-(3-Chlorophenyl)-6-ethylpyrimidin-4-yl)methyl)phenyl)acetamide]
IC50 [1]: < 1000 nM

SMILES: CCc1nc(Nc2ccc(CCO)cc2)nc(-c2cccc(Cl)c2)n1 [Example 58, 2-(4-(4-(3-chlorophenyl)-6-ethyl-1,3,5-triazin-2-ylamino)phenyl)ethanol]
IC50 [1]: < 1000 nM

SMILES: CCc1c(C)nc(-c2ccc(Cl)s2)nc1Nc1ccc2c(c1)COB2O [Example 71, 2-(5-chloro-2-thienyl)-5-ethyl-N-(1-hydroxy-3H-2,1-benzoxaborol-5-yl)-6-methyl-pyrimidin-4-amine]
IC50 [1]: < 1000 nM

SMILES: CC(=O)NC(C(=O)O)c1ccc(Nc2nc(-c3ccc(Cl)s3)nc3c2CCC3)cc1 (centres unmarked) [Example 11, 2-Acetamido-2-[4-[[2-(5-chloro-2-thienyl)-6,7-dihydro-5H-cyclopenta[d]pyrimidin-4-yl]amino]phenyl]acetic acid]
IC50 [1]: > 1000 nM

SMILES: CCc1c(C)nc(-c2ccc(Cl)s2)nc1Nc1ccc2c(c1)CS(=O)(=O)C2 [Example 312, 2-(5-Chloro-2-thienyl)-N-(2,2-dioxo-1,3-dihydro-2-benzothiophen-5-yl)-5-ethyl-6-methyl-pyrimidin-4-amine]
IC50 [1]: < 1000 nM

SMILES: CCc1nc(Nc2ccc(C(=O)O)cc2)nc(-c2cccc(Cl)c2)n1 [Example 40, 4-((4-(3-chlorophenyl)-6-ethyl-1,3,5-triazin-2-yl)amino)benzoic acid]
IC50 [1]: < 1000 nM

SMILES: CCc1c(C)nc(-c2ccc(Cl)s2)nc1NCc1ccc(B(O)O)cc1 [Example 311, [4-[[[2-(5-Chloro-2-thienyl)-5-ethyl-6-methyl-pyrimidin-4-yl]amino]methyl]phenyl]boronic acid]
IC50 [1]: > 1000 nM

SMILES: CCc1c(C)nc(-c2ccc(Cl)s2)nc1Nc1ccc(Cc2nnn[nH]2)cc1 [Example 73, 2-(5-Chloro-2-thienyl)-5-ethyl-6-methyl-N-[4-(1H-tetrazol-5-ylmethyl)phenyl]pyrimidin-4-amine]
IC50 [1]: < 1000 nM

SMILES: NC(=O)Cc1ccc(Nc2cc(-c3cccc(Cl)c3)nc3c2CCC3)cc1 [Example 3, 2-[4-[[2-(3-Chlorophenyl)-6,7-dihydro-5H-cyclopenta[b]pyridin-4-yl]amino]phenyl]acetamide]
IC50 [1]: < 1000 nM
